From article PMC7700221, “Antiproliferative Homoleptic and Heteroleptic Phosphino Silver(I) Complexes: Effect of Ligand Combination on Their Biological Mechanism of Action” (Molecules, 2020)

Experiment: Solubility as observed
Type: physicochemical

## [Ag(DAPTA)4]BF4 [Compound 7]
  solubility: water-soluble

## [Ag(PTA)4]BF4 [Compound 6]
  solubility: water soluble

## [HB(pz)3]Ag(PCN) [Compound 4]
  solubility: low solubility in CHCl3

## [HB(pz)3]Ag(PTA-SO2) [Compound 3]
  solubility: low solubility
